# Assay results taken from patent publication US20200121716A1, “Method for Inhibiting Both Glycolysis and Glutamine Metabolism in Cells and Use Thereof” (priority 2017, published 2020).
# System: anaerobia
# Assay: spontaneous anaerobic fermentation of flour paste sealed with rapeseed oil
# Assay type: cell-based
# Settings: about 7 months spontaneous fermentation, air blocked with rapeseed oil; amounts added as
row,Substance,aqueous solution above the settled flour
1,calcium formate,clear and transparent
2,ferrous sulfate,clear and transparent
3,selenium dioxide,clear and transparent
4,sodium formate,clear and transparent
